From US20110059105A1

Protein sequences, listed by entry. Tags and fused reporters are not part of them. Lines headed by an entry give the natural chain unless they say otherwise; changes in a name come on top.
UniProt P14753: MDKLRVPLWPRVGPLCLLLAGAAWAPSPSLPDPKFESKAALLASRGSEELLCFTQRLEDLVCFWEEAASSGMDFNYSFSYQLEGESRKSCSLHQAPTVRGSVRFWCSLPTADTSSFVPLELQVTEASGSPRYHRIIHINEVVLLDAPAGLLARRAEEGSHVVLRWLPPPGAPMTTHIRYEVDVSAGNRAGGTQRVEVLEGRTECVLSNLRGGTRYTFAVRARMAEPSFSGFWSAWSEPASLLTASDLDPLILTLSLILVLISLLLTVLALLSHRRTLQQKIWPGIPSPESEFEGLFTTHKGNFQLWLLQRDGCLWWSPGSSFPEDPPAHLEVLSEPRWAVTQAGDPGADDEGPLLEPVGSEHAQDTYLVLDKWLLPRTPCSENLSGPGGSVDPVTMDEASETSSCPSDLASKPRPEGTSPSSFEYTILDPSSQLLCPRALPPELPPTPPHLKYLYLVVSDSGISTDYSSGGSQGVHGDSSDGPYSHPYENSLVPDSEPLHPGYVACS

Target: Tie1-EpoR chimeric receptor on Ba/F3 cells (extracellular domain of human Tie1 fused with the transmembrane and cytoplasmic domains of the mouse erythropoietin receptor) (human; mouse) (UniProt P14753)
Assay: cell-based or functional assay

| Average MTT activity in BaF3 cell assay, treatment E3 + PA1 | Average MTT activity in BaF3 cell assay, treatment E3 + PA10 | Substance |
| --- | --- | --- |
| 0.6 | – | P-A1 IgG1 (isolate p-A1) (antibody) |
| – | 0.65 | P-A10 IgG1 (isolate p-A10) (antibody) |
